Values joined by “and” are separate entries in the source; they are usually repeats but may differ in a detail not shown here. Equal entries are not always repeated. The list shows a part of the results, in another mix than the full data. Records with an inconclusive call do not appear. Active and inactive are the calls of the source. Unless noted, calls follow the shape of the dose curve; as a rule, active = well fitted curve in the direction sought with a large enough effect in the repeat runs; inconclusive = weak or mixed curves; inactive = no such curve, though single readings can be large; an effect the other way counts as inactive or inconclusive.
Legend:
[1] = A CellTox Green Cytotoxicity Assay to monitor cytotoxicity in HepG2 cells - 0 hour (AID 1224882); also: nearly all actives have a fitted effect of over 35% in size
Outline: (§1)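 HepG2 cells, 600/well, preincubated 5 h with CellTox Green dye, then exposed to Tox21 compounds in DMSO at 37 C for up to 40 h. Dead-cell DNA fluorescence read at the indicated time point.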

By UniProt entry, the sequences of proteins in these tests, tags left out.
UniProt P10275, whole entry: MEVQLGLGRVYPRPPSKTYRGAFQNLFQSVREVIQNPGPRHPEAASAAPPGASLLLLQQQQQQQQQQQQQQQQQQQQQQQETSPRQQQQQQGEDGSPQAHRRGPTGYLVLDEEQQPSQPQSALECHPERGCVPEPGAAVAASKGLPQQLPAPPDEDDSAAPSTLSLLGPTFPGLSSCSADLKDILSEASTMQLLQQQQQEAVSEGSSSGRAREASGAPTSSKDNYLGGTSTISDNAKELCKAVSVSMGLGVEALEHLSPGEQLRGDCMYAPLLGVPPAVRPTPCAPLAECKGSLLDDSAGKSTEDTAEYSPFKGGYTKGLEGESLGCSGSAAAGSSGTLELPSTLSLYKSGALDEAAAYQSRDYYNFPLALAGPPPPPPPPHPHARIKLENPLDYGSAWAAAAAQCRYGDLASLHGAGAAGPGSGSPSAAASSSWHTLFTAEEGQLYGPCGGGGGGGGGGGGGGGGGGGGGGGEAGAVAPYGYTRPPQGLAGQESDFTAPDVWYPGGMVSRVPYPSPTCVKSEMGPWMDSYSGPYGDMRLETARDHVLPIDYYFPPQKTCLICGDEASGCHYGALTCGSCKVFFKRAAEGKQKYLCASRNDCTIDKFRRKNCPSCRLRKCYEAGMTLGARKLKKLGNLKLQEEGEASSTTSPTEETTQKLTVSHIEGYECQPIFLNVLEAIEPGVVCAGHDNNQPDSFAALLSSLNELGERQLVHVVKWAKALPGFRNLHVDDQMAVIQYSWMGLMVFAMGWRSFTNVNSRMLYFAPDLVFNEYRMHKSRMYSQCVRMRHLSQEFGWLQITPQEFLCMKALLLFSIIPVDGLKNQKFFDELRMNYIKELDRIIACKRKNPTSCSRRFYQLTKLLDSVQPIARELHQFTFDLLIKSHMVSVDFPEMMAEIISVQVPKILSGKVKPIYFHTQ
UniProt Q92731, whole entry: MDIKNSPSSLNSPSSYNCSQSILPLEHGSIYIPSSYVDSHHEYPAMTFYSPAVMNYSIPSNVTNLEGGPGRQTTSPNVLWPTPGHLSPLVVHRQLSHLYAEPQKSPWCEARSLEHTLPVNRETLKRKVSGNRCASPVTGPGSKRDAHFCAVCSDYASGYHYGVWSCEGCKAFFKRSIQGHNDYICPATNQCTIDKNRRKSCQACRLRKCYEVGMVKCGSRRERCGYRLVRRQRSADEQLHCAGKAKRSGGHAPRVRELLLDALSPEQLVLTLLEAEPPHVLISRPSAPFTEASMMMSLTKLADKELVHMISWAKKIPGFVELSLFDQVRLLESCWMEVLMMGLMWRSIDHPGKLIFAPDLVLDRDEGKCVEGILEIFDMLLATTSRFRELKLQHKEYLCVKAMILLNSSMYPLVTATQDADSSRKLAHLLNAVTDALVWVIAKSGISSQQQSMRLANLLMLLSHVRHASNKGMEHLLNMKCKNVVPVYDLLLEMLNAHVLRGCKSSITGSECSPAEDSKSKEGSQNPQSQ
UniProt P03372, whole entry: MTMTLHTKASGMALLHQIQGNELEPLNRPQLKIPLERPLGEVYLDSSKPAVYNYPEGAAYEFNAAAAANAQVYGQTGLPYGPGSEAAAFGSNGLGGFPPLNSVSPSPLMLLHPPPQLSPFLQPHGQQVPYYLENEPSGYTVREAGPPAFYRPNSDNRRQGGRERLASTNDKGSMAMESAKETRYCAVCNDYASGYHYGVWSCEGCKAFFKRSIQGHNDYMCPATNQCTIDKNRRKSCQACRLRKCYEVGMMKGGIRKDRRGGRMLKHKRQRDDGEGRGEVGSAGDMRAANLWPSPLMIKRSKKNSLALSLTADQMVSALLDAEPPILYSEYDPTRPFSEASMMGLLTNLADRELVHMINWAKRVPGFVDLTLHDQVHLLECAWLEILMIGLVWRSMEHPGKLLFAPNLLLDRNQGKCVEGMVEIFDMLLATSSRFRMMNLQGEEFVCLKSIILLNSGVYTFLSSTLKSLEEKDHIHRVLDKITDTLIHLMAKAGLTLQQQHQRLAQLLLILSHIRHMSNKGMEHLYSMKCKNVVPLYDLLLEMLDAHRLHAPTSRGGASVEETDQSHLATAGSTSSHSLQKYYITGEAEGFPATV

[2] = A CellTox Green Cytotoxicity Assay to monitor cytotoxicity in HepG2 cells - 32 hour (AID 1224883); also: nearly all actives have a fitted effect of over 50% in size
Outline: as §1

[3] = A CellTox Green Cytotoxicity Assay to monitor cytotoxicity in HEK293 cells - 8 hour (AID 1224884); also: nearly all actives have a fitted effect of over 35% in size
Outline: (§2)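 HEK293 cells, 600/well, were preincubated 5 hours and then exposed to compounds at 37 C for up to 40 hours. A cell-impermeant cyanine dye staining dead-cell DNA was read by fluorescence at 0, 8, 16, 24, 32 and 40 h time points.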

[4] = qHTS RealTime-Glo MT Cell Viability Assay in HepG2 cells - 16 hour (AID 1224885); conditions: RealTime-Glo luminescence; also: nearly all actives have a fitted effect of over 50% in size
Outline: (§3)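 Compound treatment began 5 h after plating HepG2 cells (600/well) with NanoLuc luciferase and prosubstrate. Plates stayed at 37 C for 40 h; luminescence was captured at six time points, 0 h through 40 h.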

[5] = qHTS RealTime-Glo MT Cell Viability Assay in HEK293 cells - 8 hour (AID 1224887); conditions: RealTime-Glo luminescence; also: top concentration of the series differs between compounds; nearly all actives have a fitted effect of over 50% in size
Outline: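 600 cells/well were plated with the nonlytic NanoLuc/prosubstrate reagent, pre-incubated 5 h, then given 23 nL of compound in DMSO. Incubation at 37 C for 40 h, with luminescence from viable-cell-reduced substrate read repeatedly from 0 h.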

[6] = A CellTox Green Cytotoxicity Assay to monitor cytotoxicity in HEK293 cells - 16 hour (AID 1224888); also: nearly all actives have a fitted effect of over 35% in size
Outline: as §2

[7] = qHTS RealTime-Glo MT Cell Viability Assay in HepG2 cells - 0 hour (AID 1224889); conditions: RealTime-Glo luminescence; at 76.8 µM (top of the series) unless noted; also: nearly all actives have a fitted effect of over 50% in size
Outline: as §3

[8] = A CellTox Green Cytotoxicity Assay to monitor cytotoxicity in HepG2 cells - 8 hour (AID 1224890); also: nearly all actives have a fitted effect of over 45% in size
Outline: as §1

[9] = qHTS assay to identify small molecule antagonists of the estrogen receptor alpha (ER-alpha) signaling pathway using the BG1 cell line in the presence of 0.1 nM 17-beta-estradiol - cell viability counter screen (AID 1259241); also: nearly all actives have a fitted effect of over 40% in size
Outline: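 Following 5 days in phenol red-free medium with charcoal-stripped serum, VM7Luc4E2 cells received test compounds alongside 0.1 nM 17beta-estradiol (final) at 37C for 22 hr. Live cells were then quantified via protease-substrate fluorescence.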

[10] = qHTS assay to identify small molecule antagonists of the androgen receptor (AR) signaling pathway using the MDA cell line in the presence of 0.5 nM R1881 - cell viability counter screen (AID 1259242); conditions: MDA-kb2 viability, CellTiter-Fluor protease fluorescence, 16 h; also: nearly all actives have a fitted effect of over 45% in size
Outline: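 MDA-kb2 cells (MMTV-luciferase, AR/GR responsive) were treated with compounds plus 0.5 nM R1881 (final) for 16 hr at 37C, 0% CO2. Viability was then read in the same wells as live-cell protease fluorescence (CellTiter-Fluor, 30 min).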

[11] = biological target: Androgen receptor (Homo sapiens) (UniProt P10275); assay: qHTS assay to identify small molecule antagonists of the androgen receptor (AR) signaling pathway using the MDA cell line in the presence of 0.5 nM R1881 (AID 1259243); also: nearly all actives have a fitted effect of over 50% in size; also: potency is read from the fitted curve at half-maximal effect
[12] = qHTS assay to identify small molecule HDAC inhibitors (AID 1259364); also: top concentration of the series differs between compounds; nearly all actives have a fitted effect of over 45% in size
Outline: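 Wild-type HCT-116 cells, plated overnight at 37 C, exposed to compounds 2 hr at 37 C; luminogenic HDAC-Glo substrate then added 30 min at room temperature. Luminescence reports relative endogenous class I/II HDAC activity.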

[13] = qHTS assay to identify small molecule HDAC inhibitors - cell viability counter screen (AID 1259365); conditions: HCT-116 viability, CellTiter-Glo ATP luminescence, 2 h; also: nearly all actives have a fitted effect of over 50% in size
Outline: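 HCT-116 wild-type, overnight attachment; 2hr drug exposure, 37C; CellTiter-Glo luminescent ATP readout after 30min RT.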

[14] = qHTS assay to identify small molecule agonists of the sonic hedgehog signaling (Shh) pathway - cell viability counter screen (AID 1259366); also: nearly all actives have a fitted effect of over 50% in size
Outline: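 Compounds in DMSO were pin-transferred onto 3T3 Gli1-Luc cells that had settled 4hr; plates then stood 24hr at 37C and 5% CO2. One hour before the end, CellTiter-Fluor was added and fluorescence recorded.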

[15] = qHTS assay to identify small molecule antagonists of the sonic hedgehog signaling (Shh) pathway - cell viability counter screen (AID 1259367); also: nearly all actives have a fitted effect of over 55% in size
Outline: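 Seed 3T3 Gli1-Luc cells at 2,000 per well; incubate 4 hr; add compound in DMSO, then conditioned medium; incubate at 37C with 5% CO2; add CellTiter-Fluor after 23 hr; read fluorescence 1 hr later.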

[16] = qHTS assay to identify small molecule agonists of the sonic hedgehog signaling (Shh) pathway (AID 1259368; calls by dose curve;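 also: NIH/3T3-derived 3T3Gli1-Luc cells carrying a stable Gli1-driven firefly luciferase reporter; nearly all actives have a fitted effect of over 15% in size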); conditions: NIH/3T3 Gli1-Luc reporter, luciferase, 24 h, hits give high values
Outline: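 NIH/3T3-derived 3T3Gli1-Luc cells with stably integrated Gli1-driven firefly luciferase, 2,000 cells/well, compounds added after 4 hr. Incubated 24 hr at 37C, 5% CO2; luminescence read after 30 min with luciferase reagent at room temperature.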

[17] = biological target: Estrogen receptor beta (Homo sapiens) (UniProt Q92731); assay: qHTS assay to identify small molecule agonists of the estrogen receptor beta (ER-beta) signaling pathway (AID 1259377; active = well fitted activation curve with a large enough effect in the signal ratio in the repeat runs, not every such curve was filed as active; the % refers to the signal ratio); conditions: ER-beta-UAS-bla HEK293T, beta-lactamase FRET ratio, 16 h; at 92.4 µM (top of the series) unless noted
[18] = biological target: Estrogen receptor beta (Homo sapiens) (UniProt Q92731); assay: qHTS assay to identify small molecule antagonists of the estrogen receptor beta (ER-beta) signaling pathway (AID 1259378; active = well fitted inhibition curve with a large enough effect in the signal ratio in the repeat runs, not every such curve was filed as active; the % refers to the signal ratio); conditions: ER-beta-UAS-bla HEK293T, beta-lactamase FRET ratio, 16 h; at 92.4 µM (top of the series) unless noted
Outline: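 ER-beta-UAS-bla HEK293T cells in 2% charcoal-stripped FBS medium treated with compound plus 1nM final 17-beta-estradiol for 16 hr at 37C. Beta-lactamase reporter read by FRET substrate fluorescence after 2 hours at room temperature.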

[19] = biological target: Estrogen receptor (Homo sapiens) (UniProt P03372); assay: qHTS assay to identify small molecule antagonists of the estrogen receptor alpha (ER-alpha) signaling pathway using the BG1 cell line in the presence of 0.1 nM 17-beta-estradiol (AID 1259244); conditions: VM7Luc4E2 (BG1) ERE-luciferase, antagonist mode, 0.1 nM E2, 22 h; at 92.4 µM (top of the series) unless noted; also: nearly all actives have a fitted effect of over 50% in size
[20] = qHTS assay to identify small molecule antagonists of the sonic hedgehog signaling (Shh) pathway (AID 1259369; calls by dose curve; also: nearly all actives have a fitted effect of over 45% in size; also: potency is read from the fitted curve at half-maximal effect)
Outline: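 NIH/3T3-derived Gli1-Luc reporter cells plated 4 h, dosed with compound, then stimulated with conditioned medium for 24 h at 37 C. Firefly luciferase luminescence read after 30 min with detection reagent at room temperature.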

[21] = at 76.8 µM (top of the series) unless noted
[22] = at 92.4 µM (top of the series) unless noted
% is scaled to controls: 0 for no effect and ±100 for the full control effect.

CC(C)N(CCO)C(C)C
inactive: Potency [1] | Potency [2] | Potency [3] | activity change, negative = cytotoxic [4, 21] -8.48% | activity change, negative = cytotoxicity [5, 21] -3.85% | Potency [6] | activity change, negative = cytotoxicity [7] -13% | Potency [8] | Potency [9] | viability change, negative = cytotoxic ([10]; at 92.4 µM (top of the series)) -5.11% | Potency [11] | Potency [12] | activity change, negative = cytotoxicity [13, 22] 2.42% | Potency [14] | Potency [15] | activity change [16, 22] -0.207% | activation [17] -2.7% | activity, negative = inhibition [18] -4.04%

N=C(N)N[N+](=O)[O-]
inactive: Potency [1] | Potency [2] | Potency [3] | activity change, negative = cytotoxic [4, 21] 2% | activity change, negative = cytotoxicity [5, 21] -11.9% | Potency [6] | activity change, negative = cytotoxicity [7] -3.6% | Potency [8] | Potency [9] | viability change, negative = cytotoxic ([10]; at 92.4 µM (top of the series)) 1.48% | Potency [11] | activity change, negative = inhibition [19] -6.43% | Potency [12] | activity change, negative = cytotoxicity [13, 22] 0.976% | Potency [14] | Potency [15] | activity change [16, 22] 0.569% | Potency [20]

CC(C)OP(C)(=O)OC(C)C
inactive: Potency [1] | Potency [2] | Potency [3] | activity change, negative = cytotoxicity [5, 21] -13.2% and 16.9% | Potency [6] | activity change, negative = cytotoxicity [7] -5.34% and 0.819% | Potency [8] | Potency [9] | viability change, negative = cytotoxic ([10]; at 92.4 µM (top of the series)) -14.5% and -0.884% | Potency [12] | activity change, negative = cytotoxicity [13, 22] 2.9% and 2.86% | Potency [14] | Potency [15] | activity change [16, 22] -0.877% and 0.849% | Potency [20] | activation [17] -2.33% and -2.75% | activity, negative = inhibition [18] 19.3%

CCN(CC)CCCl
inactive: Potency [2] | Potency [3] | activity change, negative = cytotoxic [4, 21] 0.404% | activity change, negative = cytotoxicity [5, 21] -3.09% | Potency [6] | activity change, negative = cytotoxicity [7] -0.565% | Potency [8] | Potency [9] | viability change, negative = cytotoxic ([10]; at 92.4 µM (top of the series)) 2.04% | Potency [11] | activity change, negative = inhibition [19] -13.4% | Potency [12] | activity change, negative = cytotoxicity [13, 22] -1.63% | activity change [16, 22] -9.29%

CCOP(=O)(CC)OCC
inactive: Potency [1] | Potency [2] | Potency [3] | activity change, negative = cytotoxic [4, 21] 1.43% | activity change, negative = cytotoxicity [5, 21] 3.66% | Potency [6] | activity change, negative = cytotoxicity [7] 0.458% | Potency [8] | Potency [9] | viability change, negative = cytotoxic ([10]; at 92.4 µM (top of the series)) 2.11% | Potency [12] | activity change, negative = cytotoxicity [13, 22] 0.457% | Potency [14] | Potency [15] | activity change [16, 22] -0.564% | Potency [20] | activation [17] -0.217% | activity, negative = inhibition [18] 3.03%

OCCSCCO
inactive: Potency [1] | Potency [2] | Potency [3] | activity change, negative = cytotoxic ([4]; at 35.3 µM (top of the series)) -22.7% | activity change, negative = cytotoxic ([4]; at 76.8 µM (top of the series)) -1.15% | activity change, negative = cytotoxicity ([5]; at 35.3 µM (top of the series)) 0.999% | activity change, negative = cytotoxicity ([5]; at 76.8 µM (top of the series)) 0.0561% | Potency [6] | Potency [8] | Potency [9] | viability change, negative = cytotoxic ([10]; at 42.5 µM (top of the series)) 5.41% | viability change, negative = cytotoxic ([10]; at 92.4 µM (top of the series)) 0.722% | Potency [12] | activity change, negative = cytotoxicity ([13]; at 42.5 µM (top of the series)) -0.429% | activity change, negative = cytotoxicity ([13]; at 92.4 µM (top of the series)) 5.86% | Potency [14] | Potency [15] | activity change ([16]; at 42.5 µM (top of the series)) 0.75% | activity change ([16]; at 92.4 µM (top of the series)) 0% | Potency [20]

CCOP(=O)(CC)Oc1ccc([N+](=O)[O-])cc1 (stereo not given)
inactive: Potency [1] | Potency [3] | activity change, negative = cytotoxic [4, 21] -7.56% [at 35.3 µM] | activity change, negative = cytotoxicity [5, 21] -0.0579% [at 35.3 µM] | Potency [6] | activity change, negative = cytotoxicity [7] -2.58% [at 35.3 µM] | Potency [8] | Potency [9] | viability change, negative = cytotoxic ([10]; at 42.5 µM (top of the series)) -15.6% | activity change, negative = inhibition [19] -13.6% [at 42.5 µM] | Potency [12] | activity change, negative = cytotoxicity [13, 22] 1.87% [at 42.5 µM] | Potency [14] | Potency [15] | activity change [16, 22] -0.173% [at 42.5 µM]
active: Potency [11] 21.1 µM

CN(C)CCCl
active: Potency [20] 54.5 µM
inactive: Potency [1] | Potency [2] | Potency [3] | activity change, negative = cytotoxic [4, 21] 2.42% | activity change, negative = cytotoxicity [5, 21] -2.63% | Potency [6] | activity change, negative = cytotoxicity [7] -0.227% | Potency [8] | Potency [9] | viability change, negative = cytotoxic ([10]; at 92.4 µM (top of the series)) 0.487% | Potency [11] | Potency [12] | activity change, negative = cytotoxicity [13, 22] 2.56% | Potency [14] | Potency [15] | activity change [16, 22] 0.509%

[NH4+].[O-][Cl+3]([O-])([O-])[O-]
inactive: Potency [1] | Potency [2] | activity change, negative = cytotoxic [4, 21] 1.98% and 2.41% | activity change, negative = cytotoxicity [5, 21] -0.418% and -0.429% | Potency [6] | activity change, negative = cytotoxicity [7] 3.54% and -2.31% | Potency [8] | Potency [9] | viability change, negative = cytotoxic ([10]; at 92.4 µM (top of the series)) 2.66% and -1.81% | Potency [12] | activity change, negative = cytotoxicity [13, 22] 2.11% and -0.0399% | Potency [14] | Potency [15] | activity change [16, 22] -0.0454% and 0.0406% | Potency [20] | activation [17] -0.177% | activity, negative = inhibition [18] 3.57%

— PubChem BioAssay (Tox21)
